Binding of CDR-mutated scFvs to a peptide of the spike HR2 region

Reference: Li et al. 2023, doi:10.1038/s41467-023-39022-2. File: FLAb, binding data.

Target peptide (SARS-CoV-2 spike, HR2 region): PDVDLGDISGINAS

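Phage display of a naive human antibody library on the peptide gave the parent. These sequences belong to a second round, designed from the earlier measurements on random variants of the parent. Several design methods are mixed in this list. The assay is AlphaSeq: two haploid yeast populations carry antibody and antigen on their surface. Pairs that bind mate more often; barcode pairs of the diploids are counted by sequencing. The ratio of observed to expected reads was calibrated, replicate by replicate, on BCL2-family standards whose Kd was known from biolayer interferometry. There are six technical replicates.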

Parent: Ab-14, a human scFv built as VH, a 15-residue (Gly4Ser)3 linker, VL. Only the CDRs of the light chain vary.
VH: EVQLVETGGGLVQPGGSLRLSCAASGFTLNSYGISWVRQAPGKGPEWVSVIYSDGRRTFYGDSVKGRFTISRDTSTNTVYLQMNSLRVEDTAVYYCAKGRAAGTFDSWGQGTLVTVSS
VL: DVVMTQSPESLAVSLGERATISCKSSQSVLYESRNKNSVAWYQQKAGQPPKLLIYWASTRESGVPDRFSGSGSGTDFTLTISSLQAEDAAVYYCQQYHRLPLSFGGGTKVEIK

The parent's light chain CDRs are KSSQSVLYESRNKNSVA, WASTRES, QQYHRLPLS; each variant's own CDRs replace them letter for letter. Variants here have at most six changes. Each Kd is an estimate from the mating assay, the geometric mean of the replicates in which the pair was seen; lower is stronger. A pair that was not seen in any replicate is written "nd"; this usually means weak binding, but a binder can also be missed. The parent sequence was in this pool as ten entries: three were never detected, three once, and four in most replicates, with averages from 2.2 nM to 240 nM. Values of this round are not directly comparable with the first-round values of the same sequences. The authors averaged sequences with at least three values out of six and counted those with two or fewer as poor binders. Nonspecific signal, from three strains lacking the peptide, appeared in 4% of pairings of all light chain designs, centred on 430 nM (5% of these signals below 38 nM); values are not corrected for it.

- KSSGSVLYESRNKNSGA / WASTRIS / QQYCRLPLS: 78 nM (5 of 6 replicates)
- KSSQSVRYETMIKWSVA / AASTRES / QQYHRLPLS: 2.9 nM (6 of 6 replicates)
- KLSESWLYESRNKNNVA / NASTRES / QQYHRLPLS: 360 pM (6 of 6 replicates)
- KLYQSMLYESRNKNSVA / NASQRES / QQYHRLPLS: 590 pM (6 of 6 replicates)
- KLSQSVLYEERNSNSVA / NASQRES / QQYHRLPLS: 2.7 nM (6 of 6 replicates)
- KVSQSQPYESRNKNSVA / NASTRES / QQYHRLPLS: 1.4 nM (6 of 6 replicates)
- KLSQSVLYESRNKNSVA / EASQREQ / QQYHRLPLS: 2.6 nM (6 of 6 replicates)
- KLSQSMLYESRNKNSVA / NASQRES / QDYHRLPLS: 660 pM (6 of 6 replicates)
- KLDQSWLYESRNKNSVA / NASTRCS / QQYHRLPLS: 1.2 nM (6 of 6 replicates)
- KSSLSILYESFNKNSVA / WASTRES / QQYHRLPLS: 140 nM (4 of 6 replicates)
- KSSQSVEYESDNKNSVA / AASTRES / QQYHRLPLS: 1.9 nM (6 of 6 replicates)
- KSEQSVYYGERNKNSVA / QASTRES / QQYHRLPLS: 1.0 nM (6 of 6 replicates)
- KSSWSVLYESHNKNSVA / NASTRMS / QQYHRLPLS: 2.1 nM (6 of 6 replicates)
- KSGQGVLYESRNKYSVA / GASTRES / QSYHRLPLS: 54 nM (6 of 6 replicates)
- KSSQSLLYESRNKNSVA / WASTRES / QQYHGLPLS: 120 nM (1 of 6 replicates)
- KSVQSVLFWSRNINSVA / DASTREY / QQYHRLPLS: 2.0 nM (6 of 6 replicates)
- KLPQSDLYESRNKNSVA / EASQRES / QQYHRLPLS: 590 pM (6 of 6 replicates)
- KLSQSFLYESRNKNNVA / DASTRES / QQYHRLPLS: 240 pM (6 of 6 replicates)
- KSSQAVLYESRNKNSVA / NASTRNS / QQYCRLPLT: 1.1 nM (6 of 6 replicates)
- FLSQSWLYESRNKNSVA / NASTRMS / QQYHRLPLS: 1.5 nM (6 of 6 replicates)
- KSSISYLGEDRNKNSVA / EASTRES / QQYHRLPLS: 1.4 nM (6 of 6 replicates)
- KLSQSDLYESRNKNNVA / NASQRES / QQYHRLPLS: 600 pM (6 of 6 replicates)
- ISSQSILDESRNQNSVA / WASTRES / QQYHSLPLS: 65 nM (4 of 6 replicates)
- KVSQSVLNESRNKNSVA / DASTRES / QQYHRLPLS: 2.0 nM (6 of 6 replicates)
- KFSQSVQYESRRLNSVA / WASTRES / QQYHRLPLS: 34 nM (6 of 6 replicates)
- KSSQSVLYESRNKNSVA / KASTRES / QKPHRLPLS: nd (0 of 6 replicates)
- KCSQSWLYESRNKNSVA / GASAREV / QQYHRLPLS: nd (0 of 6 replicates)
- KFSQSVLYESRQKNSVA / NASTRES / QQYHRLPLS: 1.3 nM (6 of 6 replicates)
- KLSFSYLYESRNKNSVA / NASTRES / QQYHRLPLS: 580 pM (6 of 6 replicates)
- KSSQSWFYESRNKESVA / GASTRES / QQYHRLELV: 8.5 nM (5 of 6 replicates)
- KSLQSVLYESRNKNSVA / HASTRED / QQYHQLPWS: 1.2 µM (3 of 6 replicates)
- KSQQSVLYESRNKNNVA / AASTRED / QQYHRLPLS: 260 pM (6 of 6 replicates)
- KISQSVLYESRNKNSVA / DASTRSS / QQYHRLPLS: 680 pM (6 of 6 replicates)
- KLSQSSLYESRNKNSVA / NASTRES / QQYHRLPLS: 310 pM (6 of 6 replicates)
- HLSWVVLYESRNKNSVA / NASTREV / QQYHRLPLS: 1.6 nM (6 of 6 replicates)
- KFPQSELYESRNKNSVA / NASQRES / QQYHRLPLS: 420 pM (6 of 6 replicates)
- KSQQSQLYESRNKNSVA / HASTRED / QQYHRLPLS: 1.2 nM (6 of 6 replicates)
- KSSQSVLYPSRNNNSVA / WASTREV / QQYHRLPLS: 2.6 µM (5 of 6 replicates)
- KFSQSVLYESRNSNSVA / EASTRES / QQYHRLPLS: 890 pM (6 of 6 replicates)

Repeated from above, the 3 best binders with a signal in all replicates:

* KLSQSFLYESRNKNNVA / DASTRES / QQYHRLPLS = 240 pM (6 of 6 replicates)
* KSQQSVLYESRNKNNVA / AASTRED / QQYHRLPLS = 260 pM (6 of 6 replicates)
* KLSQSSLYESRNKNSVA / NASTRES / QQYHRLPLS = 310 pM (6 of 6 replicates)